The source of these data is patent US11045472B2, “Quinazoline-pyridine derivatives for the treatment of cancer-related disorders” (ARCUS BIOSCIENCES, INC., priority 2017, dated 2021).

Protein sequences, listed by entry. Tags and fused reporters are not part of them.
UniProt P29275, whole entry: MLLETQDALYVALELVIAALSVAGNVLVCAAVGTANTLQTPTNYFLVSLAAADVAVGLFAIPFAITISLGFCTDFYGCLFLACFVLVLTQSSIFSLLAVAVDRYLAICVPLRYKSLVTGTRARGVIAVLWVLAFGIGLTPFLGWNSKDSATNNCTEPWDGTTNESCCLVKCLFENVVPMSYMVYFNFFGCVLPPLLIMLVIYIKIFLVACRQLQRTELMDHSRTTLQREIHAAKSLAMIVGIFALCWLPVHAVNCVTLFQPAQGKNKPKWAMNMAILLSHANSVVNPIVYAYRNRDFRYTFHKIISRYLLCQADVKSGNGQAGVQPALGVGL

For one assay, the target named is Human A2AR (Homo sapiens, UniProt P29274). In words: human 2A Adenosine Receptor (A2aR) CHO-TREx cAMP functional assay. The following applies: read-out: Potency: A2AR KB; cAMP antagonist functional assay, CHO-T-REx cells expressing Human A2AR, NECA stimulation. On the procedure: Measurement of the Adenosine Receptor Activity of Compounds using a human 2A Adenosine Receptor (A2aR) CHO-TREx cAMP Functional Assay
The cAMP antagonist functional assay (Perkin Elmer) was performed on CHO-T-REx cells induced to express Human A2AR. Cells were seeded to a white 384-well Opti plate at a density of 1,000 to 2,500 cells per well followed by incubation with various concentrations of compound (ranging from 1 μM to 0 μM) at 37° C. for 1 hour.
(§1) A 1:2 serial dilution of NECA (Sigma Aldrich) from 1 μM to 0 μM was added to the cell stimulation mixture and incubated for 30 min at 37° C. After 30 min incubation, 5 μL of Ulight-anti-cAMP (1:150 dilution with conjugate and lysis buffer provided by Perkin Elmer) and 5 μL of Eu-cAMP tracer (1:50 dilution with conjugate and lysis buffer provided by Perkin Elmer) was added the cells and incubated for an hour. FRET signal was detected with an Envision multilabel plate reader (Perkin Elmer) loaded with 615 nm […] filters and 665 nm emission filters.
(§2) Data analysis was performed using on GraphPad Prism (version 7.02) to determine the KB of the test compounds.

In another assay the target is Human A2BR (Homo sapiens, UniProt P29275). As to the kind of experiment: Human 2B Adenosine Receptor CHO-K1 cAMP functional assay. The conditions noted are these: read-out: Potency: A2BR KB; cAMP antagonist functional assay, CHO-K1 cells stably expressing Human A2BR, NECA stimulation. The protocol: Measurement of the Adenosine Receptor Activity of Compounds Using a Human 2B Adenosine Receptor CHO-K1 cAMP Functional Assay
CHO-K1 cells stably expressing Human Adenosine 2B Receptor (A2BR: Cat. No. M000329, GenScript) were purchased from GenScript Inc., Piscataway, N.J. 08854, USA.
The cAMP antagonist functional assay (Perkin Elmer) was performed on CHO-K1 cells stably expressing Human A2BR. 1×10^6 cells were seeded in T75 flasks and cultured at 37° C. and 5% CO2 overnight. 2,000-4,000 cells/well of stably-expressed A2bR CHO-K1 cells were then seeded to a white 384-well Opti plate followed by compound 1 incubation at various concentrations (ranging from 1 μM to 0 μM) at 37° C. for 1 hour.
as §1, §2

In general, Kb refers to the equilibrium dissociation constant of an antagonist, usually derived from a functional assay.

For the compound `COc1cc(F)cc2c(-c3cn(Cc4cccc(C5(O)CCC5)[n+]4[O-])nn3)nc(N)nc12`, the Kb at Human A2AR and on Human A2BR was < 0.1 µM in each case.

Consider `CC(C)(CO)c1cccc(Cn2cc(-c3cc(N)nc4c(F)cccc34)nn2)[n+]1[O-]`, for which the Kb on Human A2AR was < 0.1 µM; at Human A2BR, 0.1 to 1 µM.

As for `COc1cccc2c(-c3cn(Cc4cccc(C5CC5)[n+]4[O-])nn3)nc(N)nc12`, the Kb at Human A2AR and on Human A2BR was < 0.1 µM throughout.

Consider `COc1cccc2c(-c3cn(Cc4cccc(C5(O)CCC5)[n+]4[O-])nn3)nc(N)nc12`, for which the Kb on Human A2AR and at Human A2BR was < 0.1 µM throughout.

Consider `Nc1nc(-c2cn(Cc3cccc(C4=CCC4)[n+]3[O-])nn2)c2cccc(Cl)c2n1`, for which the Kb on Human A2AR was < 0.1 µM; on Human A2BR it was 0.1 to 1 µM.

Take `COc1c(F)ccc2c(-c3cn(Cc4cccc(C5(O)CCC5)[n+]4[O-])nn3)nc(N)nc12`: the Kb at Human A2AR and on Human A2BR was < 0.1 µM in each case.

In the case of `COc1ccc2c(-c3cn(Cc4cccc(C5(O)CS(=O)(=O)C5)[n+]4[O-])nn3)nc(N)nc2c1`, the Kb on Human A2AR and on Human A2BR was 0.1 to 1 µM in each case.

As for `COc1cccc2c(-c3cn(Cc4cccc(C5(O)CCOCC5)[n+]4[O-])nn3)nc(N)nc12`, the Kb at Human A2AR and on Human A2BR was < 0.1 µM each time.

In the case of `COc1cccc2c(-c3cn(Cc4cccc(C(C)(C)CO)[n+]4[O-])nn3)nc(N)nc12`, the Kb on Human A2AR and at Human A2BR was < 0.1 µM throughout.

Regarding `COc1c(F)ccc2c(-c3cn(Cc4cccc(C(C)(C)O)[n+]4[O-])nn3)nc(N)nc12`, the Kb at Human A2AR was < 0.1 µM; on Human A2BR, 0.1 to 1 µM.

For the compound `COCC(C)(C)c1cccc(Cn2cc(-c3nc(N)nc4c(OC)cccc34)nn2)[n+]1[O-]`, the results for the Kb at Human A2AR and at Human A2BR were < 0.1 µM and 0.1 to 1 µM, respectively.

With `Cc1cccc2c(-c3cn(Cc4cccc(C5(O)CCC5)[n+]4[O-])nn3)nc(N)nc12`, the Kb at Human A2AR and at Human A2BR was < 0.1 µM each time.

As to `CC(C)(O)c1cccc(Cn2cc(-c3cc(N)nc4c(F)cccc34)nn2)[n+]1[O-]`, the Kb on Human A2AR was < 0.1 µM; on Human A2BR, 0.1 to 1 µM.

Consider `Nc1nc(-c2cn(Cc3cccc(C4(O)CCC4)[n+]3[O-])nn2)c2cccc(F)c2n1`, for which the Kb on Human A2AR and at Human A2BR was < 0.1 µM in each case.

Take `COc1cccc2c(-c3cn(Cc4cccc(C(C)(C)O)[n+]4[O-])nn3)cc(N)nc12`: the Kb on Human A2AR and on Human A2BR was < 0.1 µM each time.

Consider `COc1cccc2c(-c3cnn(Cc4cccc(C5(O)CCC5)[n+]4[O-])c3)nc(N)nc12`, for which the figures for the Kb at Human A2AR and at Human A2BR were < 0.1 µM and 0.1 to 1 µM, respectively.

Turning to `Nc1nc(-c2cn(Cc3cccc(C4(O)CCC4)[n+]3[O-])nn2)c2cccc(Cl)c2n1`, the Kb at Human A2AR and on Human A2BR was < 0.1 µM throughout.
